The values below come from patent US5446152A, “Heterocyclic compounds active in gastro-intestinal pathologies” (priority 1993, dated 1995).

The structures appear in SMILES notation.

The test system of experiment [1] is parasympathomimetic activity. Particulars: cited from earlier work.
The subject of another experiment is rabbit jejunum. Description: Spontaneous peristaltic activity on rabbit jejunum. To be noted: Oryctolagus cuniculus, read-out: concentration required to obtain the maximum effect.
The subject of experiment [2] is gastro-intestinal motility. To be noted: cited from earlier work.
In the next experiment the test system is dopamine receptors. To be noted: cited from earlier work.
The test system of the next experiment is receptors 5HT4. To be noted: cited from earlier work.

Regarding `COc1cc(N)c(Cl)cc1C(=O)NC1CCN(CCCOc2ccc(F)cc2)CC1OC` (centres unmarked) [cisapride, reference compound], the direct parasympathomimetic activity entry in experiment [1] was “practically no”. In addition, in the experiment with rabbit jejunum, the EC (maximum effect) is 0.03 µM. Besides, the “gastro-intestinal motility / prokinetic activity” value in experiment [2] is reported as “stimulates intestinal motility”. Further, in the experiment on dopamine receptors, the “antagonist property of the dopamine receptors” value is “practically no antagonist property of the dopamine receptors”. Further, in the experiment on receptors 5HT4, the “interaction with receptors 5HT4” value is “interaction with serotoninergic receptors 5HT4”.
